Consider one substance from PMC9530649 (Cancer Immunology Research, 2022).

pEC50: −log10 of the molar value.

For the experiment, the target named is native human LAG-3 (Homo sapiens, endogenous) (UniProt P18627). Nature of the experiment: flow cytometry on cells. For orientation: Flow cytometry measures light scatter and fluorescence of single cells or particles in a stream.

What is called pEC50 is −log10 of the EC50, conventionally taken in molar units. Low values mean a high EC50, high ones a low EC50. Substance relatlimab (antibody) had a pEC50 of 9.96.
